{"sequences": {"note": "Chains of the proteins cited; added tags and fusions are not shown.", "UniProt P35372, whole entry": "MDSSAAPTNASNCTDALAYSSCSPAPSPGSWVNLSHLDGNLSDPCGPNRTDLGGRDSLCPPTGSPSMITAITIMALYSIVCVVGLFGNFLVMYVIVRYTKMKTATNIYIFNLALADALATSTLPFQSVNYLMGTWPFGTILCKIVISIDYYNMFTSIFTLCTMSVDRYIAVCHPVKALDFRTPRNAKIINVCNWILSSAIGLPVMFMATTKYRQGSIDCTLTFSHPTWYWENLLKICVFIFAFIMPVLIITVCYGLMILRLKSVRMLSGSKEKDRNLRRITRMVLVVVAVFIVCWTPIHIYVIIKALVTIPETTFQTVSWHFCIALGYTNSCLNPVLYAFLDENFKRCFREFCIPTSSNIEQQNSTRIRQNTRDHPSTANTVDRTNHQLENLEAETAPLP"}, "source": "paper PMC9939367", "about": "(Acta Pharmaceutica Sinica. B, 2022)", "target": "human MOR (Homo sapiens, UniProt P35372)", "format": "cell-based", "data": [{"compound": "COc1ccc2c3c1O[C@H]1C(=O)CC[C@@]4(O)[C@@H](C2)N(C)CC[C@]314", "note": "[oxycodone, reference compound]", "values": [{"measurement": "cAMP lgτ (operational efficacy, G-protein pathway)", "result": 2.18}]}]}
